Screen for blockers of NLRP3-driven cell death, PubChem AID 2061109 (Seoul National University).
Cells: mouse bone marrow macrophages; stimulus: LPS priming, then nigericin; dose: 5 µM; read-out: propidium iodide uptake by live imaging.
Inhibition in %: 0 = stimulated control, 100 = untreated cells; values below 0 were filed as 0. * marks the depositor's active call (above 70%). Part of the library is listed.

compound	inhibition [%]
O=C(N[C@@H](CSSC[C@H](NC(=O)OCc1ccccc1)C(=O)O)C(=O)O)OCc1ccccc1	0.0
CN1CCc2cc(Nc3ncc(C(F)(F)F)c(NCc4ccn[nH]4)n3)ccc2C1	0.0
COc1ccc(C(=O)c2c(C)n(CCN3CCOCC3)c3cc(Br)ccc23)cc1	0.0
COC(=O)c1c(C)cc(O)c(C)c1O	0.0
CN(C)C/C=C/C(=O)Nc1cccc(C(=O)Nc2ccc(Nc3nccc(-c4cccnc4)n3)cc2)c1	0.0
Cc1ccc2c(c1)C(=O)[C@]1(O)CCN(c3ccccc3)C1=N2	0.0
Cc1cc2c(C(N)=O)cccc2n1-c1nc2c(c(NCc3ccccc3)n1)COCC2	0.0
CN1C(=O)[C@@H](NC(=O)c2n[nH]c(Cc3ccccc3)n2)COc2cccnc21	0.0
NCCNc1ncc(C(N)=O)c(Nc2cccc(C(F)(F)F)c2)n1	0.0
O=C(O)C(Cc1ccccc1)CN(O)C(=O)Cc1ccccc1	0.0
CC(C)NCC(O)c1ccc([N+](=O)[O-])cc1.Cl	0.0
O=C(/C=C/n1cnc(-c2cc(C(F)(F)F)cc(C(F)(F)F)c2)n1)NNc1cnccn1	0.0
COc1ccc2nc(S(=O)Cc3ncc(C)cc3C)[nH]c2c1	0.0
Cc1[nH]n(-c2ccccc2)c(=O)c1N=Nc1ccc(N2CCOCC2)cc1	0.0
CS(=O)(=O)O.Cc1ccc(NC(=O)c2ccc(CN3CCN(C)CC3)cc2)cc1Nc1nccc(-c2cccnc2)n1	0.0
OC(CNCCc1c[nH]c2ccccc12)Cn1c2ccccc2c2ccccc21	0.0
CCOC(=O)/C=C/C(=O)N(CC(N)=O)NC(=O)[C@H](C)NC(=O)[C@H](C)NC(=O)OCc1ccccc1	0.0
C=CCc1c(O)ccc2nc3c(cc12)Cn1c-3cc2c(c1=O)COC(=O)[C@]2(O)CC	0.0
CCOc1ccc2nccc([C@@H](O)[C@@H]3C[C@@H]4CCN3C[C@@H]4CC)c2c1.Cl	0.0
NCCc1c[nH]c2ccc(O)cc12	0.0
Cl.Cl.Fc1ccc(C(OCCN2CCN(CCCc3ccccc3)CC2)c2ccc(F)cc2)cc1	0.0
O=C(C=Cc1ccccc1)c1ccc(O)cc1O	0.0
Clc1ccc(C(Cn2ccnc2)OCc2ccsc2Cl)c(Cl)c1	0.0
CCCS(=O)(=O)Nc1ccc(F)c(-n2cc(-c3cncnc3)c3nc(N(C)C4CCN(CC)CC4)ccc32)c1F	0.0
CCCCc1ccc(NC(=O)c2ccc([N+](=O)[O-])o2)cc1	0.0
OCCOc1ccccc1	0.0
Cc1sc(C(=O)c2cncnc2N[C@@H]2C[C@H](COS(N)(=O)=O)[C@@H](O)C2)cc1[C@@H]1NCCc2ccc(Cl)cc21	0.0
COc1cc(C(=O)NS(=O)(=O)c2ccccc2C)ccc1Cc1cn(C)c2ccc(NC(=O)OC3CCCC3)cc12	0.0
CCCc1c(OCCCOc2cc(NC(=O)c3nnn[n-]3)c(C)cc2Cl)ccc(C(C)=O)c1O.[Na+]	0.0
CC(NCCC(c1ccccc1)c1ccccc1)c1ccccc1.Cl	0.0
CC1(C)Cc2c(CN3CCC4(CC3)CCN(C(=O)c3ccc(N)cn3)CC4)cccc2O1	0.0
CC(C)(C)c1cc(C(=O)/C(C#N)=N/Nc2cccc(Cl)c2)no1	0.0
NC(=O)[C@H]1CCCc2c1[nH]c1ccc(Cl)cc21	0.0
CCOc1cc(-c2nncn2C)ccc1Nc1ncc2cc(C)nc(NCC(C)(C)C)c2n1	0.0
Cc1cc(N2CCCCC2)nc2ccccc12	0.0
Fc1ccc(Cl)cc1-c1nc(Nc2ccncc2)c2nccnc2n1	0.0
Nc1cccc2c(=O)[n-][nH]c(=O)c12.[Na+]	0.0
COc1ccc(C=C2SC(=O)NC2=O)cc1	0.0
N=C(N)c1ccc2cc(OC(=O)c3ccc(NC4=NCCN4)cc3)ccc2c1	0.0
NC(=O)c1csc([C@@H]2O[C@H](CO)[C@@H](O)[C@H]2O)n1	0.0
COc1cc2ncnc(N3CCN(C(=O)Nc4ccc([N+](=O)[O-])cc4)CC3)c2cc1OC	0.0
CCc1c(C#N)c(S[C@@H](C(N)=O)c2ccccc2)nc(N(C)C)c1C#N	0.0
CC(C)(C)OC(=O)N[C@@H]1CCCN(Cc2ccnc(C(=O)Nc3ccc(-c4cc5c(N6CCOCC6)ncnc5[nH]4)cc3)c2)C1	0.0
CC(=O)Nc1ccc(C(=O)Nc2ccccc2N)cc1	0.0
COc1cccc(-c2ccc(NC(=O)C3=C(C(=O)O)CCC3)c(F)c2)c1	0.0
CN(C)CCCN1c2ccccc2CCc2ccccc21.Cl	0.0
CCCCc1nc(Cl)c(CO)n1Cc1ccc(-c2ccccc2-c2nnn[n-]2)cc1.[K+]	0.0
Cn1cc2c3cc(C(=O)O)ccc3n(-c3ccc(C(F)(F)F)cc3)c2n1	0.0
CC(Cc1ccc(C(C)(C)C)cc1)CN1CCCCC1	0.0
CS(=O)(=O)O.O=C(Nc1cccc(Cl)c1)Nc1ncc(CCNc2ncnc3ccsc23)s1	0.0
N=c1c2c(-c3ccccc3)c(-c3ccccc3)n(Cc3ccccc3)c2ncn1C1CCC(O)CC1	0.0
COc1cc2c(O[C@@H]3O[C@H](CO)[C@@H]4OC(C)(C)O[C@@H]4[C@H]3O)c3c(c(-c4ccc5c(c4)OCO5)c2cc1OC)C(=O)OC3	0.0
Cc1onc(-c2c(Cl)cccc2Cl)c1CNc1cccc(C(=O)c2cn(CCCC(=O)O)c3ccccc23)c1	0.0
CC[C@@]1(O)C(=O)OCc2c1cc1n(c2=O)Cc2cc3c([N+](=O)[O-])cccc3nc2-1	0.0
CS(=O)(=O)NC(=O)C(c1ccc(OCc2ccc3ccccc3n2)cc1)C1CCCCCC1	0.0
CNc1c(C)n(C)n(-c2ccccc2)c1=O	0.0
COC(=O)N[C@H](C(=O)N1CCC[C@H]1c1nc2ccc(-c3csc4c(-c5ccc(-c6cnc([C@@H]7CCCN7C(=O)[C@H](NC(=O)OC)c7ccccc7)[nH]6)cc5)csc34)cc2[nH]1)C(C)C	0.0
N#C[C@@H]1C[C@@H]2C[C@@H]2N1C(=O)[C@@H](N)C12CC3CC(CC(O)(C3)C1)C2.O	0.0
O=C(Nc1nnc(-c2ccco2)o1)c1cc(-c2ccccc2)nc2ccccc12	0.0
C[C@]12C=CC(=O)N[C@@H]1CC[C@@H]1[C@@H]2CC[C@]2(C)[C@@H](C(=O)Nc3cc(C(F)(F)F)ccc3C(F)(F)F)CC[C@@H]12	0.0

8 of the compounds above, restated:

{"compound": "COc1ccc2nc(S(=O)Cc3ncc(C)cc3C)[nH]c2c1", "inhibition [%]": "0.0"}
{"compound": "C=CCc1c(O)ccc2nc3c(cc12)Cn1c-3cc2c(c1=O)COC(=O)[C@]2(O)CC", "inhibition [%]": "0.0"}
{"compound": "NC(=O)[C@H]1CCCc2c1[nH]c1ccc(Cl)cc21", "inhibition [%]": "0.0"}
{"compound": "CCc1c(C#N)c(S[C@@H](C(N)=O)c2ccccc2)nc(N(C)C)c1C#N", "inhibition [%]": "0.0"}
{"compound": "NC(=O)c1csc([C@@H]2O[C@H](CO)[C@@H](O)[C@H]2O)n1", "inhibition [%]": "0.0"}
{"compound": "CCCCc1nc(Cl)c(CO)n1Cc1ccc(-c2ccccc2-c2nnn[n-]2)cc1.[K+]", "inhibition [%]": "0.0"}
{"compound": "CC(C)(C)c1cc(C(=O)/C(C#N)=N/Nc2cccc(Cl)c2)no1", "inhibition [%]": "0.0"}
{"compound": "CN1CCc2cc(Nc3ncc(C(F)(F)F)c(NCc4ccn[nH]4)n3)ccc2C1", "inhibition [%]": "0.0"}